Experimental data: patent publication US8921563B2, “1-[(4-hydroxypiperidin-4-yl)methyl]pyridin-2(1H)-one derivatives, preparation methods and uses thereof” (Institue of Pharmacology and Toxicology Academy of Military …, priority 2010, dated 2014)

The chains behind the UniProt entries cited, without tags or fusion partners.
UniProt P19327, whole entry: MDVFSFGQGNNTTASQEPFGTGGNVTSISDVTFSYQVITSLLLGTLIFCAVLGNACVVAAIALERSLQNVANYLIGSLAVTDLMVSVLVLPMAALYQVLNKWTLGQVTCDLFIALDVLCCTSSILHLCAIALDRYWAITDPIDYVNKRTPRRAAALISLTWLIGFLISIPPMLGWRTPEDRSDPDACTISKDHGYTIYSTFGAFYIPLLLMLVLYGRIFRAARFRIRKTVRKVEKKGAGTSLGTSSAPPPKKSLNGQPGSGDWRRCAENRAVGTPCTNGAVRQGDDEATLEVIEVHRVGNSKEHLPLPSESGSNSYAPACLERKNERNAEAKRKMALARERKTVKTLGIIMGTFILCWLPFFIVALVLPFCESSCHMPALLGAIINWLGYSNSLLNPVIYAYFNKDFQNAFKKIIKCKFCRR

Target: T1, 5-HT1A receptor (Rattus norvegicus, UniProt P19327)
T1 construct: the content of 5-HT1A receptor extracted from rat hippocampi was 5.5 mg/ml; from tissue; host or cells: Wistar rat hippocampus, membrane preparation
Experiment: Screening: competitive binding test to 5-HT1A receptor using [3H]-8-OH-DPAT, rat hippocampi membrane protein
Details: [3H]-8-OH-DPAT 1.28 nM
Protocol: 1.4.1 Screening of YL Series Compounds
(1) Preparation of Membrane Proteins in Rat Hippocampi
Wister rats, 220-260 g, female and male, were sacrificed by decapitation and hippocampis were rapidly separated, weighed and to which homogenized in 10 times volume of Tris-HCl buffer solution (50 mM Tris-HCl, 5 mM MgCl2,1 mM EDTA, 0.5% (WN) BSA, 1 mM PMSF, 3 μg/ml proteinase inhibitor, 0.1% NaN3, 0.32M sucrose, pH 7.4) at 15,000 rpm for 30 s, total 5 times. The homogenate was centrifuged under 1000×g for 10 minutes and the supernatant was then centrifuged under 39000×g for 10 minutes. The precipitate was collected, and resuspended with 10 times volume of Tris-HCl buffer solution (pH 7.4) relative to the original weight, then centrifuged under 39000×g for 10 minutes. The precipitate was washed with the same buffer solution, centrifuged under 39000×g for 10 minutes and the precipitate was suspended with the above buffer solution. […] The protein concentration was measured by Lowrry method. […]
8) Then samples were applied to 49-type glass fibre filter, vacuum suction filtered, then washed three times with 2 ml ice-cold Tris-HCl buffer solution (50 mM Tris-HCl buffer solution, 1 mM EDTA, 5 mM MgCl2, 1 mM PMSF, 0.1% NaN3, 3 μg/ml proteinase inhibitor, pH 7.4). […] The radio-activity was measured by a scintillation counter.

## CCCN(CCC)C1CCc2cccc(O)c2C1 (centres unmarked) [Compound 8-OH-DPAT, 8-OH-DPAT, reference compound]
Compound 10^-5 mol/L
  Inhibition percent (I %), competitive binding to 5-HT1A receptor: 100%
Compound 10^-7 mol/L
  Inhibition percent (I %), competitive binding to 5-HT1A receptor: 85%
